Legend:
[1] = target: α1d-adrenoceptor (recombinant) (Homo sapiens, UniProt P25100); assay: Radioligand binding, cloned α1d-adrenoceptor ([3H]prazosin)
[2] = target: T1, α1a-adrenoceptor (recombinant) (Homo sapiens, UniProt P35348); assay: Radioligand binding, cloned α1a-adrenoceptor ([3H]prazosin)
T1 sequence (P35348 1-466): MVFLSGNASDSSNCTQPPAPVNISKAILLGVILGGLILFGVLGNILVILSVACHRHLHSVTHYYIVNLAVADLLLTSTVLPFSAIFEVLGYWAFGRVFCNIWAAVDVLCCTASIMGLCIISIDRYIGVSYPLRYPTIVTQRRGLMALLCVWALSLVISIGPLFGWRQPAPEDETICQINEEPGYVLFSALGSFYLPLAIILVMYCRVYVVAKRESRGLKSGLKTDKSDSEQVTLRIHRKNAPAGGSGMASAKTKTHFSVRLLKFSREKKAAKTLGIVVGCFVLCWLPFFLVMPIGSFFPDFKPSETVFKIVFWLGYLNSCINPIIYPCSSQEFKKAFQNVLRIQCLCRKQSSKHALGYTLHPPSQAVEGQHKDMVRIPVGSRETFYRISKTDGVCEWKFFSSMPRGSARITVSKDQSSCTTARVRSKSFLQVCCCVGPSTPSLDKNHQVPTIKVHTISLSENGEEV

By UniProt entry, the sequences of proteins in these tests, tags left out.
UniProt P25100, whole entry: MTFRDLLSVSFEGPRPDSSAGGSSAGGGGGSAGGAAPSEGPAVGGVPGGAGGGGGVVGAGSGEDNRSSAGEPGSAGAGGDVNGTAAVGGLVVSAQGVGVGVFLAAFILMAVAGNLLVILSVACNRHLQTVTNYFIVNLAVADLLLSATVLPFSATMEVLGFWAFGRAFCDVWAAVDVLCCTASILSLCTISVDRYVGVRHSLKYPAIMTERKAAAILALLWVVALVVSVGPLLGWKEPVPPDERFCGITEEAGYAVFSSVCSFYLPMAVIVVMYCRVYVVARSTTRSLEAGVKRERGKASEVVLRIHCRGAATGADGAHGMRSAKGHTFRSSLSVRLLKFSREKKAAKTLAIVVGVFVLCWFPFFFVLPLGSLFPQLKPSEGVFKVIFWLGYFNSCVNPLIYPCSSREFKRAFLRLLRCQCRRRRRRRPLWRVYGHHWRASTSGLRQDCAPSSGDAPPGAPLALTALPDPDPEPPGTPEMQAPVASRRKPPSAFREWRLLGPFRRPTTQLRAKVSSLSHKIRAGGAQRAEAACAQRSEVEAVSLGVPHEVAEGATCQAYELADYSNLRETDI

Ki [1]: 1.51 nM | Ki [2]: 0.65 nM
Structure (SMILES): COc1ccccc1N1CCN(CCCNC(=O)c2cccc3c(=O)c(C)c(-c4ccccc4)oc23)CC1 [Compound A, reference compound]

Reference: US6403594B1, “Benzopyran derivatives” (Recordati, S.A. Chemical and Pharmaceutical Company, priority 1999, dated 2002)
